Assay results from patent publication US20180333502A1 (published 2018).

T1: human GITR on cells (activated human T cells; 3A9-hGITR cells) (human, UniProt Q9Y5U5 26-241)
T1 sequence (looked up): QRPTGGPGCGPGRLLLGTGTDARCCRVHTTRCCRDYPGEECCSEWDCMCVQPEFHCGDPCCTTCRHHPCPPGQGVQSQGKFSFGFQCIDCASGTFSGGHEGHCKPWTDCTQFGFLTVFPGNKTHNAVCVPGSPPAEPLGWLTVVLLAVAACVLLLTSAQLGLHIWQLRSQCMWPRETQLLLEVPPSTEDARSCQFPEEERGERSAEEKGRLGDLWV

B1: anti-GITR-IgG2-IgG1 (antibody)
heavy: QVQLVESGGGVVQPGRSLRLSCAASGFTFSSYGMHWVRQAPGKGLEWVAVIWYEGSNKYYADSVKGRFTISRDNSKNTLYLQMNSLRAEDTAVYYCARGGSMVRGDYYYGMDVWGQGTTVTVSSASTKGPSVFPLAPCSRSTSESTAALGCLVKDYFPEPVTVSWNSGALTSGVHTFPAVLQSSGLYSLSSVVTVPSSNFGTQTYTCNVDHKPSNTKVDKTVERKCCVE[human IgG1 Fc not written out]
light: AIQLTQSPSSLSASVGDRVTITCRASQGISSALAWYQQKPGKAPKLLIYDASSLESGVPSRFSGSGSGTDFTLTISSLQPEDFATYYCQQFNSYPYTFGQGTKLEIKRTVAAPSVFIFPPSDEQLKSGTASVVCLLNNFYPREAKVQWKVDNALQSGNSQESVTEQDSKDSTYSLSSTLTLSKADYEKHKVYACEVTHQGLSSPVTKSFNRGEC
B2: anti-GITR-IgG1 (antibody)
heavy: QVQLVESGGGVVQPGRSLRLSCAASGFTFSSYGMHWVRQAPGKGLEWVAVIWYEGSNKYYADSVKGRFTISRDNSKNTLYLQMNSLRAEDTAVYYCARGGSMVRGDYYYGMDVWGQGTTVTVSSASTKGPSVFPLAPSSKSTSGGTAALGCLVKDYFPEPVTVSWNSGALTSGVHTFPAVLQSSGLYSLSSVVTVPSSSLGTQTYICNVNHKPSNTKVDKKV[human IgG1 Fc not written out]
light: B1 light

Biological target: T1, human GITR on cells (activated human T …)
Assay: cell-based or functional assay

Binder	Emax (%), phospho-p65 NFkB signaling, CD4+ T cells	Emax (%), phospho-p65 NFkB signaling, CD8+ T cells
B1	100 % of GITR.6.G2.G1f	92 % of GITR.6.G2.G1f
B2	10.8 % of GITR.6.G2.G1f	27 % of GITR.6.G2.G1f
